Values quoted from earlier work as cited in patent publication US10905685B2 (priority 2012, dated 2021).

Conditions: in vivo

CN1CC[C@]23c4c5ccc(O)c4O[C@H]2C(=O)CC[C@H]3C1C5 [hydromorphone, 4,5-α-epoxy-3-hydroxy-17-methyl morphinan-6-one]
strength relative to heroin on a milligram basis: about three times stronger than heroin | strength relative to morphine on a milligram basis: about eight times stronger than morphine
